Assay: Oral pharmacokinetics in dogs (Example 3)
Format: in vivo
Conditions: oral capsules

tris (8-quinolinolato) gallium (III) [unmodified crystalline drug]
CMax (maximum concentration) of GaQ3 in the plasma (10 mg/kg GaQ3, ICP-MS): 16.1 ng/mL | AUC (area under the curve) of GaQ3 in the plasma (10 mg/kg GaQ3, plasma to 72 hours): 213.8 ng·h/mL

Source: patent publication US10933021B2, “Compositions of gallium (III) complexes for oral administration” (Altum Pharmaceuticals Inc., priority 2017, dated 2021)
